The numbers were not newly measured in US20200360391A1, “Medicinal Composition for Treating Intractable Heart Disease” (Osaka University, priority 2016, published 2020), which cites them from elsewhere.

The subject of one series is rats. As to conditions: repeated oral administration in rats, duration per compound; cited from earlier work.
The conditions of series [1]: human, in vivo; cited from earlier work.

Some results are limits rather than exact numbers.

`Cn1c(=O)c2[nH]cnc2n(C)c1=O` [Compound H, Theophylline]: the “Dose at which toxic findings were observed” value with rats is not below 37.5 mg/kg. In series [1], the Abdominal pain cases was 1.49% and the Anorexia cases is on record as 1.28%.
